Experiments:
[1] = system: 24-hydroxylase gene reporter plasmid in rat osteosarcoma cells; assay: 24-hydroxylase transcription; type: cell-based; details: average ratio of the EC50 for the analogue to the EC50 for 1α,25-(OH)2D3
HL-60 promyelocytes = assay: HL-60 differentiation; type: cell-based; details: average ratio of the analogue EC50 to the EC50 for 1α,25-(OH)2D3
Outline: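 Differentiation of HL-60 promyelocytes to monocytes, scored as the percentage of cells reducing nitro blue tetrazolium. EC50 taken from dose–response curves as the concentration giving 50% maturation. Ratio is the average of test compound EC50 over 1α,25-(OH)2D3 EC50. Run in duplicate on at least two occasions.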

C=C1/C(=C\C=C2/CCC[C@]3(C)[C@@H]([C@H](C)CCCC(C)(C)O)CC[C@@H]23)C[C@@H](O)C[C@@H]1O [Compound 1, 1α,25-Dihydroxyvitamin D3]
24-OHase transcription ratio [1]: 1
HL-60 differentiation ratio (HL-60 promyelocytes): 1

— paper PMC3612139 (Bioorganic chemistry, 2013)
